Measured values published in patent US9446039B2, “Aminoheteroaryl compounds as MTH1 inhibitors” (CEMM—FORSCHUNGSZENTRUM FÜR MOLEKULARE MEDIZIN GMBH, priority 2012, dated 2016).

Key:
MTH1 = MTH1 (Homo sapiens, UniProt P36639); assay: MTH1 catalytic assay (luminescence-based, PPi from 8-oxo-dGTP hydrolysis, PPiLight); details: read-out: IC50, inhibition of MTH1 catalytic activity
ALK = assay: Drug pull-down with immobilized compounds from SH-SY5Y cells, Western blot for ALK; assay type: binding, human; details: SH-SY5Y lysate

Structure (SMILES): CC(Oc1cc(-c2cnn(C3CCN(C(=O)CCCCCN)CC3)c2)cnc1N)c1c(Cl)ccc(F)c1Cl (racemic)
- IC50 (MTH1): 500 nM
- enrichment / binding of ALK isoforms by immobilized compound (ALK): bind ALK to a lesser extent
